Laboratory results as given in patent US11565264B2, “Expandable arrays and methods of use” (Rutgers, The State University of New Jersey, priority 2018, dated 2023).

Test system: U87 spheres
Details: PEGDA250 at 7.2 μM; spheres cultured one week
Description: FIG. 15A illustrates the results of the cell titer glo assay that utilizes ATP levels and was used to determine GBM viability in the presence of component biomaterials. FIGS. 15B and 15C are low-power images of bright fields of spheres cultured for one week in the presence of the indicated chemicals and concentrations. The insets are higher power (20×) magnification of the 5× images.

For “poly (Ethylene glycol) diacrylate 250 [PEGDA250]”, the “cell viability (ATP levels, cell titer glo)” value was “significant loss of cell viability”.
